Measured values published in ChEMBL document CHEMBL4354843, “Structure-Based Design of a Potent and Selective Covalent Inhibitor for SRC Kinase That Targets a P-Loop Cysteine” (J Med Chem, 2020).

Test system: BaF3
Assay: cells
Conditions: Mus musculus, BaF3, 72 h

C=CC(=O)Nc1ccccc1Nc1nc(Nc2ccc(N3CCN(C)CC3)cc2)ncc1C(=O)Nc1c(C)cccc1Cl
IC50: > 2930 nM
